According to patent US20250326733A1, “A NEW ROUTE FOR SY[…] CHIRAL CANNABINOIDS FROM COUMARINS” (University of Florida Research Foundation, Inc., priority 2021, published 2025):
pKi: −log10 of the molar value.

Chains of the proteins cited; added tags and fusions are not shown.
UniProt P34972, whole entry: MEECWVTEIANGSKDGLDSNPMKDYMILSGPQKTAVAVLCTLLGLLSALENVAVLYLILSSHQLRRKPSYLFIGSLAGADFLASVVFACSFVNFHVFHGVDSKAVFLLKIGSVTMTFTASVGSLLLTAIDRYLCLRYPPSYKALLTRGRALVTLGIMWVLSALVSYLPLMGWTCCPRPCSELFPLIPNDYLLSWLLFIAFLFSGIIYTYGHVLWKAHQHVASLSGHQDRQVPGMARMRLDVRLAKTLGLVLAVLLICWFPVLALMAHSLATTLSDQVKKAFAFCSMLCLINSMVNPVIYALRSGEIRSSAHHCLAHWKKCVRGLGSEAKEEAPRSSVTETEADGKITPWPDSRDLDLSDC

Target: hCB2R (Homo sapiens, UniProt P34972)
Test: Binding affinity at human cannabinoid receptor 2

## C=C(C)[C@@H]1CCC(C)=C[C@H]1c1c(O)cc(CCCCC)cc1O [CBD, cannabidiol, reference compound]
  pKi: 5.85
